Experimental data from PubChem BioAssay AID1259344 (Tox21, 2017).
The list shows a part of the results, in another mix than the full data. Records with an inconclusive call do not appear. Calls of active or inactive are those of the source. Calls come from the whole dose curve; as a rule, active = well fitted activation curve with a large enough effect; inconclusive = small, poorly fitted or top-dose-only effect; inactive = flat fitted curve, though single readings scatter.

Assay: qHTS assay to identify small molecule phospholipidosis (PLD) inducers
Conditions: HepG2 phospholipidosis, LipidTOX Red imaging, 24 h; at 38.3 µM (top of the series) unless noted
Description: National Center for Advancing Translational Sciences [NCATS]
Drug-induced Phospholipidosis (PLD) caused by cationic amphiphilic drugs is characterized by the appearance of unicentric or multicentric-lamellar bodies when viewed under electron microscope. Electron microscopy is the gold standard method for PLD detection, however, this method is time-consuming and labor intensive, making it unsuitable for evaluating a large set of compounds. A cell-based phospholipidosis assay has been developed using the LipidTox reagent in HepG2 cells and miniaturized into a 1536-well plate format. Drug induced phospholipid accumulation is stained with the LipidTox dyes in red color which then is determined using an automated high content screening system.
HepG2 cells are dispensed at 900 cells/3 uL/well into Collagen I-coated 1536-well black-wall/clear-bottom assay plates (Greiner Bio-One, Monroe, NC) using the Multidrop Combi 8 channel dispenser (Thermo Fisher, Waltham, MA, USA). The assay plates are incubated at 37 C for 4 hours to allow the cell attachment. 3 uL of 1:500 LipidTOX Red dye is added using the dispenser, and then 23 nL compounds are added via a Wako Pintool station (Wako Automation, San Diego, CA). […]
For fixations, 4 uL of 8% paraformaldehyde fixative solution containing 10 ug/mL Hoechst 33342 in Dulbecco's phosphate-buffered saline (DPBS) is added using a Kalypsys washer/dispenser (Kalypsys, San Diego, CA, USA). […] The fluorescence intensities (595 nm excitation, 615 nm emission for LipidTOX; 352 nm excitation, 461 nm emission for Hoechst 33342) are measured using an ImageXpress Micro Widefield High Content Screening System (Molecular Devices, Sunnyvale, CA, USA) with a 20x Plan Fluor objective. Images are acquired for one site in each well and analyzed with the MetaXpress software (Molecular Devices) using the Transfluor module. Several algorithmic outputs, such as pit count per well, pit count per cell, pit integrated intensity per well, and pit integrated intensity per cell, are used for quantitative image analysis for PLD.
% is set by controls: 0 for no effect and ±100 for the full control effect.

SMILES | PLD induction
CCC(=O)N(c1ccccc1)C1(COC)CCN(CCn2nnn(CC)c2=O)CC1 | inactive: -3.31% [at 78.4 µM]
CN(CCCl)CCCl | inactive: 7.19%
CCC(=O)N(c1ccccc1)C1CCN(CCc2ccccc2)CC1 | inactive: 0.919%
